The results in this text go back to patent US6756233B1, “Method for measuring free ligands in biological fluids, and assay kits for measuring same” (priority 1985, dated 2004).

The chains behind the UniProt entries cited, without tags or fusion partners. Residues count along the entry.
UniProt P02768, 25-609: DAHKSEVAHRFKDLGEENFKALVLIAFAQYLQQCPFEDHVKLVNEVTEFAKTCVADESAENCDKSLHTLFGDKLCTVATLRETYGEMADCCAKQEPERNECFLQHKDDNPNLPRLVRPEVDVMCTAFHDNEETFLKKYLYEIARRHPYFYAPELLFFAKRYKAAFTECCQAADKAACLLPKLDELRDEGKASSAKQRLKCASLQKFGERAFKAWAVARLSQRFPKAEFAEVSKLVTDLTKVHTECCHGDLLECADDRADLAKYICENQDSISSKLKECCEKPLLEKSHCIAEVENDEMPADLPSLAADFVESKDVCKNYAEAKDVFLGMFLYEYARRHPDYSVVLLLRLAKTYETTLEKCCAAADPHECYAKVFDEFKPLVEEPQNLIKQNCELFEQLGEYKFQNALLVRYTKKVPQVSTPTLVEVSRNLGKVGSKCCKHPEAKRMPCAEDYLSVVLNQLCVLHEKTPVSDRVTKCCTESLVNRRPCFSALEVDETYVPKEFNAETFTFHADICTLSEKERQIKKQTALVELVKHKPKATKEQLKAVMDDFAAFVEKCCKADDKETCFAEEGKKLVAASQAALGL

Where two headings read alike, the source gives them in different places.

The target in experiment [1] is T1, charcoal absorbed human serum albumin (Homo sapiens, UniProt P02768).
Experiment [2] has as its target T1, charcoal absorbed human serum albumin. This is another data set of the same source.

Regarding `O=[N+]([O-])c1ccc(O)c([N+](=O)[O-])c1` [2,4-dinitrophenol], the “% B/T, Free T4” value in experiment [1] (2,4-dinitrophenol 10 μg/ml) amounted to 2.4%; in experiment [1] (2,4-dinitrophenol 50 μg/ml), 4.5%; in experiment [1] (2,4-dinitrophenol 100 μg/ml) it was 8.0%; in experiment [1] (2,4-dinitrophenol 150 μg/ml), 11.0%; in experiment [1] (2,4-dinitrophenol 200 μg/ml) it was 13.3%; in experiment [1] (2,4-dinitrophenol 400 μg/ml), 22.9%. The “% B/T, Free T4” value was found to be 31.8% in experiment [1] (2,4-dinitrophenol 800 μg/ml), 34.1% in experiment [1] (2,4-dinitrophenol 1000 μg/ml), 41.4% in experiment [1] (2,4-dinitrophenol 1500 μg/ml) and 43.2% in experiment [1] (2,4-dinitrophenol 2000 μg/ml). Besides, the “% B/T, Free T3” value in experiment [2] (2,4-dinitrophenol 10 μg/ml) is 1.0%; in experiment [2] (2,4-dinitrophenol 150 μg/ml), 4.3%; in experiment [2] (2,4-dinitrophenol 400 μg/ml), 10.0%; in experiment [2] (2,4-dinitrophenol 800 μg/ml), 16.3%; in experiment [2] (2,4-dinitrophenol 3000 μg/ml), 28.2%; in experiment [2] (2,4-dinitrophenol 3500 μg/ml) it was 27.6%. Also, in experiment [2] (2,4-dinitrophenol 4000 μg/ml), the “% B/T, Free T3” value is given as 27.3%.
